Where two headings read alike, the source gives them in different places.
System: bacterial inoculum
Assay type: cell-based
Settings: for toxicity / delay of the onset of microbial growth: without glutaraldehyde
Protocol: In all experiments, a 10:1 ratio of minimal media to Fischer-Tropsch diesel fuel were prepared and evaluated in 250 ml flasks.
In addition to these experiments, several controls were run without Glutaraldehyde as follows: […]

NCCO [MEA, Monoethanolamine]
Growth, MEA control without glutaraldehyde (1 ppm MEA, Time 0 days): − | Growth, MEA control without glutaraldehyde (1 ppm MEA, Time 1 days): − | Growth, MEA control without glutaraldehyde (1 ppm MEA, Time 2 days): − | Growth, MEA control without glutaraldehyde (1 ppm MEA, Time 3 days): + | Growth, MEA control without glutaraldehyde (1 ppm MEA, Time 7 days): + | Growth, MEA control without glutaraldehyde (1 ppm MEA, Time 9 days): + | Growth, MEA control without glutaraldehyde (1 ppm MEA, Time 14 days): + | Growth, MEA control without glutaraldehyde (10 ppm MEA, Time 0 days): − | Growth, MEA control without glutaraldehyde (10 ppm MEA, Time 1 days): − | Growth, MEA control without glutaraldehyde (10 ppm MEA, Time 2 days): − | Growth, MEA control without glutaraldehyde (10 ppm MEA, Time 3 days): + | Growth, MEA control without glutaraldehyde (10 ppm MEA, Time 7 days): + | Growth, MEA control without glutaraldehyde (10 ppm MEA, Time 9 days): + | Growth, MEA control without glutaraldehyde (10 ppm MEA, Time 14 days): + | Growth, MEA control without glutaraldehyde (100 ppm MEA, Time 0 days): − | Growth, MEA control without glutaraldehyde (100 ppm MEA, Time 1 days): − | Growth, MEA control without glutaraldehyde (100 ppm MEA, Time 2 days): − | Growth, MEA control without glutaraldehyde (100 ppm MEA, Time 3 days): − | Growth, MEA control without glutaraldehyde (100 ppm MEA, Time 7 days): − | Growth, MEA control without glutaraldehyde (100 ppm MEA, Time 9 days): − | Growth, MEA control without glutaraldehyde (100 ppm MEA, Time 14 days): + | Growth, MEA control without glutaraldehyde (500 ppm MEA, Time 0 days): − | Growth, MEA control without glutaraldehyde (500 ppm MEA, Time 1 days): − | Growth, MEA control without glutaraldehyde (500 ppm MEA, Time 2 days): − | Growth, MEA control without glutaraldehyde (500 ppm MEA, Time 3 days): − | Growth, MEA control without glutaraldehyde (500 ppm MEA, Time 7 days): − | Growth, MEA control without glutaraldehyde (500 ppm MEA, Time 9 days): − | Growth, MEA control without glutaraldehyde (500 ppm MEA, Time 14 days): + | toxicity / delay of the onset of microbial growth (high levels in the control (100 ppm and higher)): toxic | toxicity / delay of the onset of microbial growth (low levels in the controls (less than 100 ppm)): not significantly toxic
